For one substance, IC50 results are on record in patent publication US9718808B2, “Inhibitors of the renal outer medullary potassium channel” (Merck Sharp & Dohme Corp., priority 2014, dated 2017).

The chains behind the UniProt entries cited, without tags or fusion partners. Where a name states a change or a piece, a line headed by the entry shows the natural chain unless it says otherwise.
UniProt P48048: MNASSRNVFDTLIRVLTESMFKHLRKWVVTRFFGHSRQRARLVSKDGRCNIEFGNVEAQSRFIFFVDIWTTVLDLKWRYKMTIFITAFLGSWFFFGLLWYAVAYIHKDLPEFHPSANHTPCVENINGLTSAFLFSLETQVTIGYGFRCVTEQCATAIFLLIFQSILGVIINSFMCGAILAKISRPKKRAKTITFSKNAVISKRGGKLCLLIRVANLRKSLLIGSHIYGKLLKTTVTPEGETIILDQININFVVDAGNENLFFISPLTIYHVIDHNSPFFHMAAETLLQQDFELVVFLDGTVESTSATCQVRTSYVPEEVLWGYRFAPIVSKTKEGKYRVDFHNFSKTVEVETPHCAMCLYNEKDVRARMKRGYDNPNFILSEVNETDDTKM

For the assay, the target named is ROMK (Kir1.1) channel (Homo sapiens (Human), UniProt P48048). Kind of assay: Thallium Flux Assay. The format is cell-based. Here is the method: A Thallium Flux Assay was performed on each of the final product compounds of the Examples. This assay has been described previously; see, e.g., PCT Published Application WO 2013/062900.

The term IC50 denotes the point on the concentration scale where inhibition reaches its midpoint. Read a high IC50 as a need for much substance.

The substance “(5R,8r)-2-(4-methyl-5-oxo-2,5-dihydrofuran-3-yl)-8-(((R)-1-(4-methyl-6-(1H-tetrazol-1-yl)pyridazin-3-yl)ethyl)amino)-2-azaspiro[4.5]decan-1-one [Example 46]” showed an IC50 of 180 nM. This lies in the sub-micromolar range.
